Results reported in PMC4772728 (Drug development and industrial pharmacy, 2013).

Legend:
[1] = Octanol/water partition coefficient determination; type: physicochemical; settings: octanol/purified water, room temperature, 24 hours
[2] = Stratum corneum/water partition coefficient determination; type: physicochemical, human
[3] = PBS pH 7.4 with 30% DMSO, 37 °C, pseudo first order
[4] = fresh rat plasma, 37 °C

Partition coefficient (LogK SC/ 5% PG water) ([2]; stratum corneum / 5% propylene glycol in water, 24 hrs)	Hydrolysis in PBS (half life in hours) [3] [min]	Bioconversion in plasma (half life in min) [4]	Substance	Partition coefficient (LogP octanol/water) [1]	Partition coefficient (LogK SC/ 5% PG water) [2]
			Ethylene Glycol Diclofenac Ester [ED]	3.83	1.74
1.56	1550	11 min and 11.3 min	Glycerol Diclofenac Ester [GD]		

“And” between values parts separate entries of the source, which are not always exact repeats. Equal entries are not always repeated. Where two headings read alike, the source gives them in different places.
